Earlier results as cited in PMC8253905.

Protein sequences, listed by entry. Tags and fused reporters are not part of them. Lines headed by an entry give the natural chain unless they say otherwise; changes in a name come on top. Residues count along the entry.
UniProt P0A9D4: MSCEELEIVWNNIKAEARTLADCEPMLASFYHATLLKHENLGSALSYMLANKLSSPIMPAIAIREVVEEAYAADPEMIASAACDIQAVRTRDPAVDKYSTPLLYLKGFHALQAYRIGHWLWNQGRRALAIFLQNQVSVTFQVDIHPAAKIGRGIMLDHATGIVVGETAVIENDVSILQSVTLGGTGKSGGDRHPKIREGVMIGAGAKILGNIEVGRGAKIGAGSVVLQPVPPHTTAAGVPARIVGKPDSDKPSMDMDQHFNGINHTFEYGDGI
UniProt P0ABK5, 2-323: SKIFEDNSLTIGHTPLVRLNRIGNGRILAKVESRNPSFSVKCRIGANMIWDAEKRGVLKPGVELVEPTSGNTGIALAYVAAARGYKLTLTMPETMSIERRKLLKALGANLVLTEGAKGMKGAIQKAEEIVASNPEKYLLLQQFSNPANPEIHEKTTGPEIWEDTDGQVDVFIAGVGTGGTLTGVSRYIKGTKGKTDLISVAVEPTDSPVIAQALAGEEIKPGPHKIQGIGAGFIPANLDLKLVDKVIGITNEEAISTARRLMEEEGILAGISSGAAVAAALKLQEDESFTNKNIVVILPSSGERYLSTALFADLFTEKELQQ

Biological target: CysE (Escherichia coli) (UniProt P0A9D4)

- pKd: 8.22
Substance: CysK (from UniProt P0ABK5)

pKd: −log10 of the molar value.
